Values after ≈ are worked out from the molar mass of the structure shown.
How the values were obtained:
[1] = target: Keap1/Nrf2 (Homo sapiens) (UniProt Q16236+Q14145); details: HRMC, time 18.0 hrs
[2] = in vivo; details: CD(SD), rat, po, 1 mg/kg
[3] = in vivo; details: Wistar, rat, kidney, po, 0.3 mg/kg
[4] = in vivo; details: CD(SD), rat, po, 1 mg/kg; remark: listed apart in the source
[5] = in vitro; details: human, plasma
[6] = in vivo; details: CD(SD), rat, iv, 0.1 mg/kg
[7] = in vivo; details: Wistar, rat, plasma, po, 0.1 mg/kg
[8] = in vitro; details: rat, plasma
[9] = in vivo; details: Wistar, rat, kidney, po, 3 mg/kg
[10] = physchem; details: FeSSIF, pH 5
[11] = in vivo; details: CD(SD), rat, po, 1 mg/kg; remark: listed apart in the source
[12] = in vivo; details: CD(SD), rat, po, 1 mg/kg; remark: listed apart in the source
[13] = in vivo; details: Wistar, rat, kidney, po, 0.1 mg/kg
[14] = in vivo; details: Wistar, rat, plasma, po, 3 mg/kg
[15] = in vivo; details: Wistar, rat, kidney, po, 1 mg/kg
[16] = in vivo; details: CD(SD), rat, iv, 0.1 mg/kg; remark: listed apart in the source
[17] = in vivo; details: CD(SD), rat, iv, 0.1 mg/kg; remark: listed apart in the source
[18] = in vivo; details: Wistar, rat, plasma, po, 0.3 mg/kg
[19] = Apparent permeability in human Caco-2 cells incubated for 2 hrs by LC/MS analysis
[20] = in vivo; details: CD(SD), rat, po, 1 mg/kg; remark: listed apart in the source
[21] = physchem; details: FaSSIF, pH 6.5
[22] = in vivo; details: Wistar, rat, plasma, po, 1 mg/kg
[23] = in vitro; details: rat, liver microsomes
[24] = in vivo; details: CD(SD), rat, iv, 0.1 mg/kg; remark: listed apart in the source
[25] = in vivo; details: CD(SD), rat, po, 1 mg/kg; remark: listed apart in the source
[26] = Metabolic stability in human liver microsomes assessed as compound remaining at 5 uM measured upto 60 mins
[27] = in vivo; details: CD(SD), rat, iv, 0.1 mg/kg; remark: listed apart in the source

Amino acid sequences for entries named in this document (tags omitted).
UniProt Q16236, whole entry, looked up: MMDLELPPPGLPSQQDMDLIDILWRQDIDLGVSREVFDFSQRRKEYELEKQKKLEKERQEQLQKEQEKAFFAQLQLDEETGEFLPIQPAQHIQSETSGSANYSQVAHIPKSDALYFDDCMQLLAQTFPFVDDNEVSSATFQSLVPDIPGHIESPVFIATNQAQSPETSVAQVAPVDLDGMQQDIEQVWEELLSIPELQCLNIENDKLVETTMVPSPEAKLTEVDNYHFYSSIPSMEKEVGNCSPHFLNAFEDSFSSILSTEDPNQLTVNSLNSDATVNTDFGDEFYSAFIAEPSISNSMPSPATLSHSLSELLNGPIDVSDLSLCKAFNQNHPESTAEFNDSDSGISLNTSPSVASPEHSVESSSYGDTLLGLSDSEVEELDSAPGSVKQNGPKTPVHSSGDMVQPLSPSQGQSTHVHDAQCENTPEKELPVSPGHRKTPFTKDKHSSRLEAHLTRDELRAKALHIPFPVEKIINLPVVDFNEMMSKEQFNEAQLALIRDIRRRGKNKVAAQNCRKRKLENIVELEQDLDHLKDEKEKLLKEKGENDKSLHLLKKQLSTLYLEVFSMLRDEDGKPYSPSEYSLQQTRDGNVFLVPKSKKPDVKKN
UniProt Q14145, whole entry, looked up: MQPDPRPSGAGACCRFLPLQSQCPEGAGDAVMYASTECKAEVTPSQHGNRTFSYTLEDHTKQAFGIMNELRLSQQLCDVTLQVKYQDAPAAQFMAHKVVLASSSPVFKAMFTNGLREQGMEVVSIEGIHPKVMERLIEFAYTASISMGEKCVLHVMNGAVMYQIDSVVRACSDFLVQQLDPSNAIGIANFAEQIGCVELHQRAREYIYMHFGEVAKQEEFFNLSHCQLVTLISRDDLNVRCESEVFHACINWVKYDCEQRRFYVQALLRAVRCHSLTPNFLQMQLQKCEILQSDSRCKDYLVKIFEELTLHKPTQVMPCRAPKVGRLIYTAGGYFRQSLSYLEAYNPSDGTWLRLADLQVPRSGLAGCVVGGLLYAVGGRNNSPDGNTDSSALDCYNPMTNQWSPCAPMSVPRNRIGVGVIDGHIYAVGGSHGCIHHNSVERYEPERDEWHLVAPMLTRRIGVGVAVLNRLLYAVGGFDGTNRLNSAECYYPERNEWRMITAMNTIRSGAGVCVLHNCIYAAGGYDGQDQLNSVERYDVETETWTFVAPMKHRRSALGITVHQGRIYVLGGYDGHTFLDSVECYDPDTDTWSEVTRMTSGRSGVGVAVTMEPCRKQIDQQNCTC

Question: With `Cc1ccc([C@@H](NC(=O)Cc2ccc(Cl)cc2)[C@@H](C)C(=O)O)cc1OCC(C)(C)C#N` as the molecule, how does the CD [1] read?
Answer: 1.8 µM

Question: For `Cc1ccc([C@@H](NC(=O)Cc2ccc(Cc3cc(C)ccn3)cc2)[C@@H](C)C(=O)O)cc1.Cl`, which CD [1] is on record?
Answer: 2.6 µM

Question: Which results are given for `CCOc1cccnc1Cc1ccc([C@H](F)C(=O)N[C@H](c2ccc(C)cc2)[C@@H](C)C(=O)O)cc1`?
Answer: Cmax at 25 h [2]: 98 nM; concentration at 6 h [3]: 190 nM; Tmax at 25 h [4]: 3 h; fraction unbound [5]: 0.038; MRT at 25 h [6]: 2.9 h; concentration at 6 h [7]: 5 nM; fraction unbound [8]: 0.01; concentration at 6 h [9]: 730 nM; solubility at 4 h [10]: 380 µM (≈ 177 µg/mL); bioavailability at 25 h [11]: 42%; AUC at 25 h [12]: 1.1 µM·h; concentration at 6 h [13]: 64 nM; concentration at 6 h [14]: 150 nM; concentration at 6 h [15]: 400 nM; Vd at 25 h [16]: 2.4 L/kg; half-life at 25 h [17]: 2.4 h; concentration at 6 h [18]: 19 nM; Papp at 2 h [19]: 14 ×10⁻⁶ cm/s; half-life at 25 h [20]: 4.1 h; solubility at 4 h [21]: ≥ 475 µM; concentration at 6 h [22]: 56 nM; remaining at 1 h, 5 µM [23]: 71%; AUC at 25 h [24]: 0.26 µM·h; MRT at 25 h [25]: 6.4 h; remaining at 1 h, 5 µM [26]: 89%; clearance at 25 h [27]: 14 mL/min/kg

Question: With `Cc1ccc(CC(=O)N[C@H](c2ccc(C)c(OCC(C)C)c2)[C@@H](C)C(=O)O)cc1` as the molecule, how does the CD [1] read?
Answer: 17 µM

Question: With `Cc1ccc([C@@H](NC(=O)Cc2ccc(Cc3ncccc3C)cc2)[C@@H](C)C(=O)O)cc1.Cl` as the molecule, how does the CD [1] read?
Answer: 1.1 µM

Question: With `Cc1ccc(CC(=O)N[C@H](c2ccc(C)c(OCC3CCCCC3)c2)[C@@H](C)C(=O)O)cc1` as the molecule, how does the CD [1] read?
Answer: 13 µM

Question: Which CD [1] does the source give for `Cc1ccc([C@@H](NC(=O)Cc2ccc(Cn3ccccc3=O)cc2)[C@@H](C)C(=O)O)cc1` here?
Answer: 47 µM

Question: For `Cc1ccc(CC(=O)N[C@H](c2ccc(C)c(OCC(C)(C)O)c2)[C@@H](C)C(=O)O)cc1`, which CD [1] is on record?
Answer: 31 µM

Question: For `Cc1ccc([C@@H](NC(=O)Cc2ccc(Cc3ccc(C)cn3)cc2)[C@@H](C)C(=O)O)cc1.Cl`, which CD [1] is on record?
Answer: 2.2 µM

Question: Which CD [1] does the source give for `Cc1ccc(CC(=O)N[C@H](c2ccc(C)cc2)[C@@H](C)C(=O)O)cc1` here?
Answer: > 100 µM

Question: Which Cmax at 25 h [2] does the source give for `Cc1ccc([C@H](F)C(=O)N[C@H](c2ccc(C)c(OCC3(C#N)CC3)c2)[C@@H](C)C(=O)O)cc1` here?
Answer: 3100 nM

Question: And the concentration at 6 h [3]?
Answer: 82 nM

Question: And the Tmax at 25 h [4]?
Answer: 1 h

Question: And the fraction unbound [5]?
Answer: < 0.001

Question: What about the MRT at 25 h [6] of the same molecule?
Answer: 2.1 h

Question: What about the concentration at 6 h [7] of the same molecule?
Answer: 16 nM

Question: What about the fraction unbound [8] of the same molecule?
Answer: 0.003

Question: What about the concentration at 6 h [9] of the same molecule?
Answer: 490 nM

Question: What about the solubility at 4 h [10] of the same molecule?
Answer: 62 µM (≈ 27.2 µg/mL)

Question: What about the bioavailability at 25 h [11] of the same molecule?
Answer: 74%

Question: And the AUC at 25 h [12]?
Answer: 18 µM·h

Question: And the concentration at 6 h [13]?
Answer: 26 nM

Question: What about the concentration at 6 h [14] of the same molecule?
Answer: 370 nM

Question: And the concentration at 6 h [15]?
Answer: 160 nM

Question: And the Vd at 25 h [16]?
Answer: 0.2 L/kg

Question: And the half-life at 25 h [17]?
Answer: 4.3 h

Question: And the concentration at 6 h [18]?
Answer: 51 nM

Question: And the Papp at 2 h [19]?
Answer: 1 ×10⁻⁶ cm/s

Question: What about the half-life at 25 h [20] of the same molecule?
Answer: 4.4 h

Question: What about the solubility at 4 h [21] of the same molecule?
Answer: ≥ 475 µM

Question: What about the concentration at 6 h [22] of the same molecule?
Answer: 130 nM

Question: And the remaining at 1 h, 5 µM [23]?
Answer: 77%

Question: What about the AUC at 25 h [24] of the same molecule?
Answer: 2.4 µM·h

Question: What about the MRT at 25 h [25] of the same molecule?
Answer: 5.1 h

Question: And the remaining at 1 h, 5 µM [26]?
Answer: 65%

Question: What about the clearance at 25 h [27] of the same molecule?
Answer: 1.67 mL/min/kg

Question: For `Cc1ccc([C@@H](NC(=O)Cc2ccc(Cc3ccccn3)cc2)[C@@H](C)C(=O)O)cc1.Cl`, which CD [1] is on record?
Answer: 2.5 µM

Question: Which CD [1] does the source give for `Cc1ccc([C@@H](NC(=O)Cc2ccc(CC3CCCCC3)cc2)[C@@H](C)C(=O)O)cc1` here?
Answer: 45 µM

Question: With `Cc1ccc([C@@H](NC(=O)Cc2ccc(Cc3ccccc3)cc2)[C@@H](C)C(=O)O)cc1` as the molecule, how does the CD [1] read?
Answer: 33 µM

Question: For `Cc1ccc(CC(=O)N[C@H](c2ccc(C)c(OCC3(C#N)CC3)c2)[C@@H](C)C(=O)O)cc1`, which CD [1] is on record?
Answer: 1.2 µM

Question: With `Cc1ccc([C@@H](NC(=O)[C@@H](F)c2ccc(Cl)cc2)[C@@H](C)C(=O)O)cc1OCC(C)(C)C#N` as the molecule, how does the Cmax at 25 h [2] read?
Answer: 2300 nM

Question: And the Tmax at 25 h [4]?
Answer: 0.8 h

Question: And the fraction unbound [5]?
Answer: 0.002

Question: What about the MRT at 25 h [6] of the same molecule?
Answer: 5 h

Question: And the fraction unbound [8]?
Answer: 0.001

Question: What about the solubility at 4 h [10] of the same molecule?
Answer: 471 µM (≈ 217 µg/mL)

Question: And the bioavailability at 25 h [11]?
Answer: 55%

Question: What about the AUC at 25 h [12] of the same molecule?
Answer: 24 µM·h

Question: What about the Vd at 25 h [16] of the same molecule?
Answer: 0.26 L/kg

Question: And the half-life at 25 h [17]?
Answer: 5.4 h

Question: What about the Papp at 2 h [19] of the same molecule?
Answer: 2.7 ×10⁻⁶ cm/s

Question: And the half-life at 25 h [20]?
Answer: 7.3 h

Question: And the solubility at 4 h [21]?
Answer: 470 µM (≈ 217 µg/mL)

Question: And the remaining at 1 h, 5 µM [23]?
Answer: 97%

Question: And the AUC at 25 h [24]?
Answer: 4.3 µM·h

Question: What about the MRT at 25 h [25] of the same molecule?
Answer: 9.3 h

Question: What about the remaining at 1 h, 5 µM [26] of the same molecule?
Answer: 96%

Question: And the clearance at 25 h [27]?
Answer: 0.85 mL/min/kg

Question: With `COc1cccnc1Cc1ccc(CC(=O)N[C@H](c2ccc(C)cc2)[C@@H](C)C(=O)O)cc1.Cl` as the molecule, how does the CD [1] read?
Answer: 0.68 µM

Question: Which CD [1] does the source give for `Cc1ccc(CC(=O)N[C@H](c2ccc(C)c(OCC3CCCC3)c2)[C@@H](C)C(=O)O)cc1` here?
Answer: 12 µM

Question: For `Cc1ccc([C@@H](NC(=O)Cc2ccc(Cn3cccn3)cc2)[C@@H](C)C(=O)O)cc1`, which CD [1] is on record?
Answer: 7.6 µM

Question: For `Cc1ccc(CC(=O)N[C@H](c2ccc(C)c(OCC(C)(C)F)c2)[C@@H](C)C(=O)O)cc1`, which CD [1] is on record?
Answer: 1.3 µM

Question: For `CCOc1cccnc1Cc1ccc(CC(=O)N[C@H](c2ccc(C)cc2)[C@@H](C)C(=O)O)cc1`, which CD [1] is on record?
Answer: 0.21 µM

Question: For `Cc1ccc([C@@H](NC(=O)[C@@H](F)c2ccc3c(c2)CCCC3)[C@@H](C)C(=O)O)cc1`, which CD [1] is on record?
Answer: 2 µM

Question: For `Cc1ccc(CC(=O)N[C@H](c2ccc(C)c(OCC(C)(C)C#N)c2)[C@@H](C)C(=O)O)cc1`, which CD [1] is on record?
Answer: 1.2 µM

Question: Which CD [1] does the source give for `Cc1ccc([C@@H](NC(=O)Cc2ccc(Cc3cccc(C)n3)cc2)[C@@H](C)C(=O)O)cc1.Cl` here?
Answer: 2.9 µM

Question: Which CD [1] does the source give for `CCCOc1cc([C@@H](NC(=O)Cc2ccc(C)cc2)[C@@H](C)C(=O)O)ccc1C` here?
Answer: 24 µM

From ChEMBL document CHEMBL5518210 (J Med Chem, 2024)
